Measured affinities in a library of Ab-14 heavy chain variants

Values reported by Li et al. 2023, doi:10.1038/s41467-023-39022-2 (FLAb copy).

The target is the same throughout: PDVDLGDISGINAS, from the HR2 region of SARS-CoV-2 spike.

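The starting antibody came from a phage panning campaign against this peptide. These sequences belong to a second round, designed from the earlier measurements on random variants of the parent. Several design methods are mixed in this list. The assay is AlphaSeq: two haploid yeast populations carry antibody and antigen on their surface. Mating (16 h, 30 °C) was followed by selection of diploids and sequencing of their barcodes. Read counts were normalised to the haploid input and turned into Kd by a linear fit to BCL2-family pairs of known affinity, for each replicate. Each pool was mated in six replicate cultures.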

Each scFv is VH, three GGGGS repeats, VL, as in the parent Ab-14, and differs from it in the CDRs of the heavy chain only.
VH: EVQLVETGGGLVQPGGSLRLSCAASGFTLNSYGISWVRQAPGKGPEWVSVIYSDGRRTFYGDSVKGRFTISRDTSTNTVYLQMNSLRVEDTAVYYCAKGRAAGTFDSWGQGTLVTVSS
VL: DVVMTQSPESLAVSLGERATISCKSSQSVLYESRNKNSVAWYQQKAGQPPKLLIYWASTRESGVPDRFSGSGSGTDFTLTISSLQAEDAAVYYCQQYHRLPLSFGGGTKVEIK

The parent's heavy chain CDRs are GFTLNSYGIS, VIYSDGRRTFYGDSVK, GRAAGTFDS; each variant's own CDRs replace them letter for letter.
This list holds designs with more than six substitutions.
Affinities are written as log10 Kd with Kd in nM; a lower number is a better binder.
The mean shown is taken over the replicates in which the pair was detected.
An entry "nd" has no value in the source: the pair was not observed among the diploids in that replicate. This suggests poor binding but is not conclusive.
Entries are sorted by rising average, undetected variants last.
The parent sequence was in this pool as ten entries: three were never detected, three once, and four in most replicates, with averages from 0.34 to 2.37.
The range of this assay differs from that of the first round, and the authors advise against merging the two.
The authors averaged sequences with at least three values out of six and counted those with two or fewer as poor binders.
Three control strains display no target. For all heavy chain designs, 1% of the pairings with them gave a signal, with a median of 2.08 and one signal in twenty below 0.84, so weak values seen in few replicates may be background.

CDR-H1	CDR-H2	CDR-H3	replicates, log10 nM	log10 Kd (nM), mean
GFDLNEYGIS	VIYADGMRTAYSDSVK	GGVAGTFDL	-0.98 -0.91 -0.65 -1.31 -0.75 -0.92	-0.92
GFDLNEYGIS	VIYADGMRKAYADSVK	GQVAGTFDV	-0.21 -0.79 -1.01 -1.13 -1.08 -0.99	-0.87
GFDLNEYGIS	VIYADGKRTAYIDSVK	GNTAGTFDQ	-0.47 -0.79 -1.33 -0.57 -1.10 -0.39	-0.78
GFDLNEYGIS	VIYADGRRTAYADSVK	GQIAGTFDT	-0.14 -0.87 -0.32 -0.90 -1.26 -0.98	-0.75
GFDLNEYGIS	VIYADGQRTAYADSVK	GKNAGTFDV	-0.88 -0.72 -1.05 -0.44 -0.70 -0.61	-0.73
GFDLNEYGIS	VIYADGKRTAYAESVK	GENAGTFDV	-0.43 -0.72 -0.96 -0.85 -0.66 -0.57	-0.70
GFDLNEYGIS	VIYADGRRTYYIDSVK	GNEAGTFDS	-0.52 -0.71 -0.77 -0.90 -0.45 -0.49	-0.64
GFDLDEYGIS	VIYADGMRTFYADSVK	GNVAGTFDQ	-0.36 -0.65 -0.56 -0.57 -0.90 -0.69	-0.62
GFDLNEYGIS	VIYADGRRTAYADNVK	GNVAGTFDL	-0.28 -0.44 -0.56 -0.76 -0.52 -0.44	-0.50
GFNLDEYGIS	VIYADGRRTFYADSVK	GQVAGTFLL	0.53 -0.43 -0.76 -0.83 -0.74 -0.71	-0.49
GFDLNEYGIS	VIYADGVRTFYTDSVK	GEHAGTFDV	-0.33 -0.40 -0.47 -0.61 -0.46 -0.33	-0.43
GFDLNEYGIS	VIYADGRRTAYADSVK	GESAGTFDQ	-0.41 -0.41 -0.24 -0.57 -0.43 -0.47	-0.42
GFDLNEYGIS	VIYADGKRTAYADSVK	GEEAGTFDV	-0.49 -0.57 -0.21 -0.44 -0.54 -0.19	-0.41
GFDLNEYGIS	VIYADGVRTFYVDSVK	GETAGTFEM	-0.14 -0.36 -0.30 -0.49 -0.53 -0.41	-0.37
GFGLDEYGIS	VIYADGRRTFYADSVK	GKNAGTFDM	-0.39 -0.30 -0.36 -0.16 -0.65 -0.23	-0.35
GFDLDEYGIS	VIYADGQRTAYSDSVK	GEVAGTFDI	0.08 -0.66 -0.41 -0.53 -0.40 -0.07	-0.33
GFDLDEYGIS	VIYADGRRTAYADSVK	GTNAGTFDL	-0.30 -0.39 -0.13 -0.45 -0.38 -0.27	-0.32
GFDLEDYGIS	VIYADGRRTAYIDSVK	GEQAGTFDV	0.05 -0.40 -0.68 -0.35 -0.33 -0.12	-0.31
GFDLNEYGIS	VIYADGSRTAYADDVK	GNVAGTFDQ	-0.04 -0.35 -0.16 -0.45 -0.43 -0.06	-0.25
GQDLNEYGIS	VIYADGLRTAYTNNVK	GNQSGFDEG	-0.11 0.04 -0.49 -0.38 -0.49 -0.05	-0.25
GFDLNEYGIS	VIYADGMRTFYTDSVK	GGNAGTFDV	-0.24 -0.23 -0.51 -0.39 -0.11 0.13	-0.23
GFDLNEYGIS	VIYADGRRTAYSDSVK	GEIAGTFDI	0.10 -0.21 -0.26 -0.46 -0.22 -0.31	-0.23
GFSIDEYGIS	VIYADGSRQVYQDKVK	GKGTGNFTT	0.08 -0.09 -0.24 -0.87 0.03 -0.19	-0.21
GFDLNEYGIS	VIYADGMRTAYVDDVK	GNVAGTFDL	-0.40 0.30 -0.10 -0.32 -0.36 -0.32	-0.20
GMSIGEYGIS	VIYADGERTNYASNFK	GVHAGTFDV	nd 0.25 0.08 -0.75 nd -0.20	-0.15
GFDLNEYGIS	VIYADGRRTFYKDSVK	GNAGGTFDV	-0.04 -0.59 0.04 0.12 -0.39 0.02	-0.14
GFDLDEYGIS	VIYADGRRTAYADSVK	GSNAGTFDV	0.63 nd nd nd -0.45 -0.49	-0.11
GFDLNEYGIS	VIYADGMRTSYADDVK	GENAGTFDM	-0.41 1.15 -0.38 -0.82 0.54 -0.60	-0.09
GFDLNEYGIS	VIYADGRRTFYIDSVK	GTNAGTFDT	0.24 -0.07 -0.32 -0.20 -0.08 0.23	-0.03
GFDLNEMGIH	VIYADGIRTAVSNDVK	GNVAGTIDV	0.10 0.14 -0.37 0.02 0.32 0.32	0.09
GFDLDEYGIS	VIYADGMRTQYADSVK	GENAGTFDV	-0.45 0.66 nd 0.42 nd 0.48	0.28
GFDLNEYGIS	VIYADGVRTAYIDSVK	GNQAGTFDI	0.49 nd nd 0.55 nd nd	0.52
GFDIDEYGIS	VIYADGIRQFYQDKVK	GNVGGMFDT	1.06 nd 1.58 0.69 1.01 0.74	1.02
GFDLNEYGIS	VIYADGLRTFYTDSVK	GENAGTFDW	0.94 1.34 2.69 1.70 1.38 1.47	1.59
GFNLDEYGIS	VIYADGRRTSYRDKFK	GAQNFSVMM	nd nd nd 1.66 nd nd	1.66
GFDLNEYGIS	VIYADGMRTKASESVK	GTGDGSFQL	nd 2.34 nd nd nd nd	2.34
GFNLAEYGIS	VIYADGSRVAYADNVK	GLNGKIGDL	nd nd nd nd nd nd	nd
GFDLEEYGIS	VIYADGMRQMYAQNFK	GYNSSDGTV	nd nd nd nd nd nd	nd
GFDLNEYGIS	VIYADGQRVSYAQNVK	GLVGKLGVV	nd nd nd nd nd nd	nd
GFTLMDYGCS	VIYSYGRRTFYGDSVK	SRAALTFHS	nd nd nd nd nd nd	nd
GFNLDDMGIS	VIYADGERTAYSDSVK	GHEGYFMNV	nd nd nd nd nd nd	nd
GFDLNEYGIS	VIYADGHRSFFIDTVK	GQQAGIFNV	nd nd nd nd nd nd	nd
GKNLDEYGIS	VIYADGMRSMYADSVK	GGISGWTFI	nd nd nd nd nd nd	nd
GFDLESYGIS	VIYADGRRTFYSDSVK	GVNAGTFDI	nd nd nd nd nd nd	nd
GFNLSEYGIS	VIYADGRRTAYKDTVK	GVRTWLFDL	nd nd nd nd nd nd	nd
GKDIEEYGIS	VIYADGMRQAYKESVK	GQVAGIGKF	nd nd nd nd nd nd	nd
GFDLNEYGVS	VIYADGFRTAYTDTVK	GNIFDAIMA	nd nd nd nd nd nd	nd
GMNLEEYGIS	VIYADGMRTAAVDSVK	GDQSGTVVY	nd nd nd nd nd nd	nd
GQGLDEYGIS	VIYADGMRNAYSNNVK	GQGGAVLGI	nd nd nd nd nd nd	nd
GVNLDEYGIS	VIYADGKRVHYTDKVK	GTFGDFMIV	nd nd nd nd nd nd	nd

7 of these entries, quoted again:

CDR-H1	CDR-H2	CDR-H3	replicates, log10 nM	log10 Kd (nM), mean
GFDLNEYGIS	VIYADGMRTFYTDSVK	GGNAGTFDV	-0.24 -0.23 -0.51 -0.39 -0.11 0.13	-0.23
GFDLNEYGIS	VIYADGSRTAYADDVK	GNVAGTFDQ	-0.04 -0.35 -0.16 -0.45 -0.43 -0.06	-0.25
GFDLNEYGIS	VIYADGRRTAYADSVK	GESAGTFDQ	-0.41 -0.41 -0.24 -0.57 -0.43 -0.47	-0.42
GFDLDEYGIS	VIYADGRRTAYADSVK	GSNAGTFDV	0.63 nd nd nd -0.45 -0.49	-0.11
GFDIDEYGIS	VIYADGIRQFYQDKVK	GNVGGMFDT	1.06 nd 1.58 0.69 1.01 0.74	1.02
GKNLDEYGIS	VIYADGMRSMYADSVK	GGISGWTFI	nd nd nd nd nd nd	nd
GFDLNEYGIS	VIYADGQRTAYADSVK	GKNAGTFDV	-0.88 -0.72 -1.05 -0.44 -0.70 -0.61	-0.73